Usually Ki stands for the dissociation constant of the complex between target and ligand, obtained from inhibition or displacement. Usually EC50 stands for the midpoint of the concentration-response curve.

Sequences of proteins named here, by UniProt entry; tags and fusion partners are left off. A change or cut given only in a name is not applied to a line headed by its entry.
UniProt P41145: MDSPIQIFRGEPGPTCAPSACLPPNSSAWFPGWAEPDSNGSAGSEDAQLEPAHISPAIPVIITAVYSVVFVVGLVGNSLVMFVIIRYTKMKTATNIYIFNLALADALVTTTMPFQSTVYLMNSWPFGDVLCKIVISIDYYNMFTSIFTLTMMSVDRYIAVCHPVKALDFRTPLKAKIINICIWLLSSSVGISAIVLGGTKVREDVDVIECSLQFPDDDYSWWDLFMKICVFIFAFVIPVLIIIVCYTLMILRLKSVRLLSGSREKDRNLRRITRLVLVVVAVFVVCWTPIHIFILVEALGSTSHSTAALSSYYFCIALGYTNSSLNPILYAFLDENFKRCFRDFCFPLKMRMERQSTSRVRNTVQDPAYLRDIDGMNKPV
UniProt P33535, whole entry: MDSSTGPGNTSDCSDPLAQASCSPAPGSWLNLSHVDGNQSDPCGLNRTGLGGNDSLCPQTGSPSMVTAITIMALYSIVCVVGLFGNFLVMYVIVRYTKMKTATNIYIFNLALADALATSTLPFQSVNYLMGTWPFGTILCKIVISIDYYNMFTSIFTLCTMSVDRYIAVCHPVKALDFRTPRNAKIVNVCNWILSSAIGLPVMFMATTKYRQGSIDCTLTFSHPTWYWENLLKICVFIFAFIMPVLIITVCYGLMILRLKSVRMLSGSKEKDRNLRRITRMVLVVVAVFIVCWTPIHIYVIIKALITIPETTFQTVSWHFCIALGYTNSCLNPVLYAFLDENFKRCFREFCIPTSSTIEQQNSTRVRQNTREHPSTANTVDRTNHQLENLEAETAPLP
UniProt P35372, whole entry: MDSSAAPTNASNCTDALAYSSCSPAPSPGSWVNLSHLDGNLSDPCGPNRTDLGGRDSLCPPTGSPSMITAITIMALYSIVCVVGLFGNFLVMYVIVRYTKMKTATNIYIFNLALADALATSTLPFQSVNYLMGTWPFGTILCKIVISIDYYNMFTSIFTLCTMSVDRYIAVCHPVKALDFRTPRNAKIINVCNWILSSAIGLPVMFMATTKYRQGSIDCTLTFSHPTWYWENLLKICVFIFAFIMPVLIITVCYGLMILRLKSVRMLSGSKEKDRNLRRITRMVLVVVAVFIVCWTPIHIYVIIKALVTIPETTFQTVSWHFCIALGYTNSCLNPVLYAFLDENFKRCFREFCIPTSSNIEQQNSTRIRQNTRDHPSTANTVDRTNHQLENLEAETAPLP

The target of one test is hKOR (Homo sapiens, UniProt P41145). In kind it is binding. The note with it: read-out: Ki (nM) ± SEM KOR.
For another test, the target named is MOR (Rattus norvegicus, UniProt P33535). The experiment in a line: [35S]GTPγS assay, agonist efficacy at MOR. In kind it is biochemical. Background: GTPγS is a poorly hydrolysed GTP analogue; its binding reports G protein activation.
For a further test, the target named is hMOR (Homo sapiens, UniProt P35372).

Regarding `O=C1/C(=C/c2ccccc2)C[C@@]2(O)[C@H]3Cc4ccc(O)c5c4[C@@]2(CCN3CCc2ccccc2)[C@H]1O5` [Compound 7], the Ki worked out at 602 ± 60 nM on hKOR and 0.056 ± 0.0038 µM on hMOR. This compound registered a 50% effective concentration (EC50) at MOR of 0.253 ± 0.07 µM.

Values taken from PMC5404377 (Bioorganic & medicinal chemistry letters, 2016).
